The subject of one test is human EAAT2. As to the kind of experiment: EAAT2 protein levels in PA-EAAT2 cells by Western blot. The test is classed as cell-based. The note with it: 24 hr, EAAT2 protein relative to DMSO. The method, then:
Compounds were evaluated in PA-EAAT2 cells, a primary astrocyte stably expressing human EAAT2 mRNAs (Kong et al., J Clin Invest. 2014:1255-67). Cells were treated with compound at 0.0375, 0.075, 0.15, 0.3, 0.6, 1.25, 2.5, 5, 10 μM for 24 hr and then harvested for measuring EAAT2 protein levels by Western blot analysis.
A general note: In western blotting, separated proteins are transferred to a membrane and probed.

The test system of the next test is EAAT2. The test can be described thus: EAAT2 protein levels in forebrain gliosomes of wild-type FVB/NJ mice by Western blot. The format is in vivo. The settings on record: 40 mg/kg, normalized to flotilin. The method, then:
Mice were treated with compound at 40 mg/kg (or as depicted) and forebrains were harvested for the gliosome preparation 24 hr (or as described) post-treatment. FIG. 2A: Western blots show dose-dependent increase of EAAT2 protein levels. FIG. 2B: Time-dependent fold increase in EAAT2 protein expression in response to compound treatment at 4 hours (1.54±0.13) and 24 hours (1.98±0.19) post-treatment. Quantification of EAAT2 expression time course (normalized to flotilin; n=4/group). Data represented as mean SEM and analyzed using one-way ANOVA with Tukey post-hoc test. *p<0.05, **p<0.01. FIG. 2C: Compound treatment enhances CA3-CA1 LTP in the hippocampus. Mice were treated with vehicle or compound for seven days and acute hippocampal sections were collected for LTP recordings. […] Data represented as mean SEM analyzed using one-way ANOVA with Bonferroni post-hoc tests. Statistical significance denoted as ***p<0.001.
Wild-type FVB/NJ mice (3-4 months old) were treated orally with compound 100 at 1, 2.5, 5, 10, 20, 40 mg/kg. At 24 hours post-treatment, mice were euthanized and forbrains were harvested. Gliosomes (astrocytic processes) were then isolated for measuring EAAT2 protein levels by Western blot analysis. […] This induction could be seen as early as 4 hours post-treatment (FIG. 2B). […] Acute hippocampal slices were then collected and assessed for changes in long-term potentiation (LTP).

Turning to `CN(C)CCn1nc(-c2ccccn2)ccc1=O` [Compound 100, 2-(2-(dimethylamino)ethyl)-6-(pyridin-2-yl)pyridazin-3(2H)-one], in the test on human EAAT2, the “Fold increase for EAAT2 at indicated concentration (maximum activity)” value is reported as 2.3 ± 0.3 fold. The “fold increase in EAAT2 protein expression” value with EAAT2 (4 hours post-treatment) is given as 1.54±0.13 fold; in the test on EAAT2 (24 hours post-treatment), 1.98±0.19 fold.
